High-throughput results from PubChem BioAssay.
Sampled rows, rich in hits. Any-hit rate of the full collection: about 16%.
TDP1 block: blocks human tyrosyl-DNA phosphodiesterase 1 | Potency, µM (doses to about 130 µM), hits mostly inhibitors | recombinant TDP1, AlphaScreen DNA substrate cleavage | 350,000 tested, 0.28% active | AID 485290; further: nearly all actives have a fitted effect of over 40% in size
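Recombinant E. coli-expressed Tdp1 (1 nM) preincubated with compound 15 min at RT, then 5'-biotin/3'-phosphotyrosine-FITC DNA substrate (15 nM) added for 5 min. AlphaScreen beads (10 ug/ml) added, 10 min RT; tyrosine-FITC cleavage read as signal loss.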
uPA surface inh: blocks generation of uPA at the cell surface. Potency, µM (titrated, usually from 38.3 µM), actives largely listed as inhibitors. AID 540303. cell surface uPA generation assay, qHTS. 330,000 tested, 0.31% active; active means well fitted inhibition curve with a large enough effect; inconclusive means small, poorly fitted or top-dose-only effect; inactive means no such curve, though single readings can be large or run the other way; tested in mouse RAW 264.7 cells; further: nearly all actives have a fitted effect of over 55% in size
DT40 TDP1 CPT: DT40-hTDP1 cell growth loss with CPT; Potency, µM (top dose mostly 46.2 µM), most hits filed as inhibitors; 420,000 tested, 12% active; chicken DT40 Tdp1-/-;hTDP1 cells + 20 nM CPT, ATP luminescence, 48 h; AID 686979; further: nearly all actives have a fitted effect of over 55% in size
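Chicken DT40 Tdp1-/- cells stably complemented with human TDP1 were seeded at 400 cells/well in medium containing 20 nM camptothecin, exposed to pin-transferred compounds, and grown at 37 °C for at least 48 hr. Viability was read as ATP luminescence.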
DT40 TDP1 no CPT: qHTS for Inhibitors of human tyrosyl-DNA phosphodiesterase 1 (TDP1): qHTS in cells in absence of CPT; DT40 Tdp1-/- hTDP1 cells, no CPT, ATP luminescence, 48 h; Potency, µM (doses to about 46.2 µM), actives largely listed as inhibitors; 420,000 tested, 15% active; further: nearly all actives have a fitted effect of over 55% in size
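DT40 Tdp1-/-;hTDP1 cells, no CPT (DMSO vehicle only), 400 cells/well; compounds pin-transferred; ≥48 hr, 37 °C; CellTiter-Glo 30 min RT dark, luminescence read.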
miR-21 reporter: raises the signal of a miR-21 reporter | HeLa miR-21 FLuc reporter, luciferase, 48 h | Potency, µM (highest dose often 38.3 µM) | 340,000 tested, under 10 active | AID 2288; active = well fitted rising curve with a large enough effect; inconclusive = small, poorly fitted or top-dose-only effect; inactive = no such curve, though single readings can be large or run the other way;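 also: miR-21 action dims this reporter so a rising signal means less miR-21 action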
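HeLa miR-21-FLuc reporter line, endogenous miR-21; 2000 cells/well in DMEM/10% FBS; compound titration up to ~40uM final, 48 h, 37 degree Celsius; luciferase detection reagent, 15 min lysis, CCD luminescence.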
Numbers stand for hits; n = inactive; u = inconclusive; x = no result given; [ ] = another dose, or the depositor's remark. Unless noted, the call rests on the fitted dose curve; in most records, active means well fitted curve in the direction sought with a large enough effect; inconclusive means small, poorly fitted or top-dose-only effect, or another doubt; inactive means no such curve, though single readings can be large; an effect the other way counts as inactive or inconclusive.

SMILES	TDP1 block	uPA surface inh	DT40 TDP1 CPT	DT40 TDP1 no CPT	miR-21 reporter
COc1ccc(CCNC(=O)c2cc(=O)[nH]c3ccc(Br)cc23)cc1OC	n	n	n	u	n
Cc1nnc(SCC(=O)NCc2ccccc2F)c2nn(-c3ccc(Cl)cc3)c(C)c12	n	x	13µM	8.2µM	n
CCOc1ccc(CNC(=O)CSc2nnc(C)c3c(C)n(-c4ccccc4)nc23)cc1	n	x	u	u	n
Cc1nnc(SCC(=O)NCc2cccc(F)c2)c2nn(-c3ccccc3)c(C)c12	n	x	8.2µM	7.3µM	n
CCCCNC(=O)CSc1nnc(C)c2c(C)n(-c3ccccc3)nc12	n	x	u	u	n
Cc1ccc(S(=O)(=O)N/N=C\c2ccc3c(c2)OCO3)cc1C	n	n	n	n	n
Cc1onc(-c2ccccc2Cl)c1C(=O)N/N=C(\N)COc1ccc(Cl)cc1	n	n	23µM	13µM	n
Cc1onc(-c2ccccc2)c1C(=O)N/N=C(\N)COc1ccc(Cl)cc1	n	x	16µM	u	n
CCOc1ccc(C(=O)COC(=O)c2c(-c3ccccc3)noc2C)cc1	x	n	u	21µM	x
Cc1ccc(OCCOC(=O)c2c(-c3ccccc3)noc2C)cc1	n	n	u	u	n
Cc1ccc(NC(=O)C2CCCN2S(=O)(=O)c2ccc(F)cc2)c(C)c1 (stereo not drawn)	n	n	n	n	n
COC(=O)CSC1=C(C#N)C(c2ccc(C)o2)CC(=O)N1 (stereo not drawn)	n	n	15µM	2.9µM	n
COC(=O)CSC1=C(C#N)C(c2ccc(F)cc2)CC(=O)N1 (stereo not drawn)	n	n	n	u	n
CCCOC(=O)CSC1=C(C#N)C(c2ccc3c(c2)OCO3)CC(=O)N1 (stereo not drawn)	n	n	18µM	23µM	n
CCOc1ccc(NC(=O)CSC2=C(C#N)C(c3ccc4c(c3)OCO4)CC(=O)N2)cc1 (stereo not drawn)	n	n	n	n	n
CCOC(=O)NC(=O)C(/C=N/c1sccc1C(=O)OC)=C(\C)O	n	n	u	n	n
CCCCCCCCCCCCCCCCCCNc1ccn(C2OC(COP(=O)(O)OCC3OC(n4cc(F)c(=O)[nH]c4=O)CC3O)C(O)C2O)c(=O)n1 (stereo not drawn)	x	n	0.13µM	0.041µM	x
Cc1ccccc1NC(=S)N/N=C/c1ccc(O)cc1O	n	n	10µM	9.2µM	n
Cc1cccc(C)c1NC(=S)N/N=C/c1ccccc1C(=O)O	n	n	n	n	n
Cc1cccc(NC(=S)N/N=C/c2cccc(O)c2)c1C	x	u	2.6µM	2.6µM	n
CC(NC(=S)Nc1ccc(F)cc1)c1ccccc1 (stereo not drawn)	x	n	n	u	n
CC(C)c1ccccc1NC(=S)NC(C)c1ccccc1 (stereo not drawn)	n	n	u	16µM	n
Cc1ccc(Cl)cc1NC(=S)N/N=C/c1cccc2ccccc12	n	n	2.9µM	4.6µM	u
O=C(O)c1cccc(NC(=S)N/N=C/c2cccc(O)c2)c1	n	n	n	n	n
CN(CC(=O)Nc1ccc(F)cc1)C(=O)COC(=O)CNC(=O)c1sc2ccccc2c1Cl	n	n	n	n	x
SMILES	TDP1 block	uPA surface inh	DT40 TDP1 CPT	DT40 TDP1 no CPT	miR-21 reporter
Cc1cc(N2CCN(C(=O)c3ccco3)CC2)n2nc(C)nc2n1	n	n	n	n	n
Cc1ccccc1NC(=S)N/N=C/C(C)c1ccccc1 (stereo not drawn)	n	n	10µM	13µM	n
CCOc1cccc2cc(C(=O)NCc3ccc(C)cc3)c(=N)oc12	n	n	u	4.1µM	n
COc1ccc(CNC(=O)c2cc3cccc(O)c3oc2=N)cc1	n	n	u	n	n
CCOc1cccc2cc(C(=O)NCc3ccc(OC)cc3)c(=N)oc12	n	n	26µM	u	n
Nc1nc(=S)c2snnc2[nH]1	x	x	11µM	16µM	x
Nc1nc(N)c2snnc2n1	x	x	n	u	x
Cc1ccccc1NC(=O)c1ccc(NC(=O)C2CCCO2)cc1 (stereo not drawn)	n	n	n	n	n
COc1cccc(C(=O)NCC(c2ccc(N(C)C)cc2)N2CCOCC2)c1OC (stereo not drawn)	n	x	15µM	16µM	n
COc1cccc(C(=O)NCC(c2ccc(N(C)C)cc2)N2CCCC2)c1OC (stereo not drawn)	n	x	12µM	u	n
COc1cc(C(=O)NCC(c2ccc3c(c2)OCO3)N2CCN(C)CC2)cc(OC)c1OC (stereo not drawn)	n	x	n	n	n
COc1ccc(Cl)cc1C(=O)NCC(c1ccc(N(C)C)cc1)N1CCOCC1 (stereo not drawn)	n	x	u	16µM	n
Cc1ccccc1C(=O)NCC(c1ccc(N(C)C)cc1)N1CCCC1 (stereo not drawn)	n	x	n	n	n
CN(C)c1ccc(C(CNC(=O)c2ccccc2C(F)(F)F)N2CCOCC2)cc1 (stereo not drawn)	n	x	n	n	n
COc1cc(C(=O)NCC(c2ccc(N(C)C)cc2)N2CCCC2)cc(OC)c1OC (stereo not drawn)	n	x	18µM	u	n
COCCCN(CCNC(=O)c1ccc(NC2=NC3CS(=O)(=O)CC3S2)cc1)Cc1ccco1 (stereo not drawn)	x	n	n	n	n
Cc1cc(C)cc(C(=O)NCC(c2ccc(N(C)C)cc2)N2CCCC2)c1 (stereo not drawn)	n	x	15µM	16µM	n
O=C(Nc1cc(=O)[nH]c2ncnn12)c1ccc(Cl)cc1Cl	n	n	n	u	n
CC(C)(C)Cc1c(-c2ccc(F)cc2)nc2ccc(Br)cn12	x	x	u	16µM	x
CCOC(=O)c1c(-c2ccccc2)nc2ccc(Cl)cn12	n	n	u	16µM	n
CN(C)Cc1c(-c2ccc(Cl)cc2)nc2ccc(Cl)cn12	n	n	u	13µM	n
CC(C)(C)Cc1c(-c2ccccc2)nc2ccc(Cl)cn12	x	x	23µM	23µM	x
CC(C)(C)Cc1c(-c2ccc(Br)cc2)nc2ccc(Cl)cn12	x	x	21µM	u	x
COc1cc2c(cc1OC)C(c1ccccc1OC(C)C)CC(=O)N2 (stereo not drawn)	x	n	u	15µM	n
CC(C)COc1ccccc1C1CC(=O)Nc2cc3c(cc21)OCO3 (stereo not drawn)	n	x	2.6µM	4.1µM	u
COc1cccc(C2CC(=O)Nc3cc4c(cc32)OCCO4)c1OC (stereo not drawn)	n	x	21µM	18µM	n
COc1cc(C2CC(=O)Nc3cc4c(cc32)OCCO4)cc(OC)c1O (stereo not drawn)	n[12.3 µM]	x	u	21µM	n
CCOc1c(OC)cccc1C1CC(=O)Nc2cc3c(cc21)OCCO3 (stereo not drawn)	n	u	u	u	n
